Measured values as given in patent US8518966B2, “Amidoalkyl-8-azabicyclo[3.2.1]octane compounds as mu opioid receptor antagonists” (Theravance, Inc., priority 2007, dated 2013).

Protein sequences, listed by entry. Tags and fused reporters are not part of them. Lines headed by an entry give the natural chain unless they say otherwise; changes in a name come on top.
UniProt P35372: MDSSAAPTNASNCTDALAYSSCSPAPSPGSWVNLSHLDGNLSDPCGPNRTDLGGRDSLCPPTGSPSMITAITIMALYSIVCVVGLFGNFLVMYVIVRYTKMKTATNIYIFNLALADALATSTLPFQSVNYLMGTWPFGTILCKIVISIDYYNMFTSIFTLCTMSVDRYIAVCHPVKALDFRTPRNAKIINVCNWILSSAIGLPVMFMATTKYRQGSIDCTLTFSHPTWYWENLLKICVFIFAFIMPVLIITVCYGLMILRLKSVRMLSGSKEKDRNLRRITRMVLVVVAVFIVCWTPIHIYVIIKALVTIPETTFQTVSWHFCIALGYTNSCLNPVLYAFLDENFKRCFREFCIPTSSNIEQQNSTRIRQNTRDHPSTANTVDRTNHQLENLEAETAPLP

Molecular target: human mu opioid receptor (Homo sapiens, UniProt P35372)
Conditions: [3H]-Diprenorphine 0.5 nM, CHO-K1 membranes

**Q.** With “3-endo-(8-{2-[(2-ethylbutyl)-((S)-2-hydroxypropionyl)-amino]ethyl}-8-azabicyclo[3.2.11oct-3-yl)-benzamide” as the substance, how does the “pKi at the human mu opioid receptor” value read?
**A.** The value was 9.7.
